Earlier results, collected in US20150023920A1, “NOVEL COMPOSITIONS AND METHODS FOR PREVENTING OR TREATING CANCER METASTASIS” (Drexel University, priority 2012, published 2015).

What was measured:
IL-1β [1] = molecular target: T1, IL-1β (Homo sapiens, UniProt P01584); details: cited from earlier work
IL-1β [2] = molecular target: T1, IL-1β; details: cited from earlier work; remark: listed apart in the source

## XOMA-052: potent anti-IL-1β humanized neutralizing antibody
IL-1β [1]
  binding affinity for human IL-1β: 300 femtomolar
IL-1β [2]
  in vitro potency: low picomolar range
